In experiment [1] the target is T1, m-opiate receptor (mOR) cDNA RC8-1 expressed in COS cells (Rattus norvegicus, UniProt P33535). The conditions noted are these: membranes of COS cells expressing RC8-1.
In experiment [2] the target is T1, m-opiate receptor (mOR) cDNA RC8-1 expressed in COS cells. The experiment can be described thus: Displacement of [3H]DAMGO binding from membranes of COS cells expressing RC8-1. In general terms: In a radioligand displacement assay an active substance lowers the binding of a labelled ligand.

Amino acid sequences for entries named in this document (tags omitted).
UniProt P33535, whole entry, looked up: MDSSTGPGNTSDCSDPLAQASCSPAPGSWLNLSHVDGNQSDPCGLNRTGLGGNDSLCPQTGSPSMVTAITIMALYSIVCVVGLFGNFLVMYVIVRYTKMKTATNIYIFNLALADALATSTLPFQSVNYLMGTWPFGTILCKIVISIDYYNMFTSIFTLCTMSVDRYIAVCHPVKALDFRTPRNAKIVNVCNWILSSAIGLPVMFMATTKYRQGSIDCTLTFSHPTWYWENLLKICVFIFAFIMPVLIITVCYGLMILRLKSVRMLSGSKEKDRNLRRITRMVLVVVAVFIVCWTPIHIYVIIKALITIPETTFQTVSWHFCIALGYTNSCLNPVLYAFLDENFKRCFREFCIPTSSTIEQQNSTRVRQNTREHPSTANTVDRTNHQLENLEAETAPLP

Turning to `CN(C(=O)Cc1ccccc1)C1CCC2(CCCO2)CC1N1CCCC1` (centres unmarked), the “specific recognition of the radioligand” value in experiment [1] is “no appreciable specific recognition”. Also, the “potency in displacing binding of [³H]DAMGO” value in experiment [2] was “substantially less potency”.

For the origin of these results see patent EP0612845A2 (priority 1993, dated 1994).
